Test results reported in patent publication US7687482B2, “Bisphosphonate compounds and methods” (The Board of Trustees of the University of Illinois, priority 2006, dated 2010).

Chains of the proteins cited; added tags and fusions are not shown.
UniProt P14324, whole entry: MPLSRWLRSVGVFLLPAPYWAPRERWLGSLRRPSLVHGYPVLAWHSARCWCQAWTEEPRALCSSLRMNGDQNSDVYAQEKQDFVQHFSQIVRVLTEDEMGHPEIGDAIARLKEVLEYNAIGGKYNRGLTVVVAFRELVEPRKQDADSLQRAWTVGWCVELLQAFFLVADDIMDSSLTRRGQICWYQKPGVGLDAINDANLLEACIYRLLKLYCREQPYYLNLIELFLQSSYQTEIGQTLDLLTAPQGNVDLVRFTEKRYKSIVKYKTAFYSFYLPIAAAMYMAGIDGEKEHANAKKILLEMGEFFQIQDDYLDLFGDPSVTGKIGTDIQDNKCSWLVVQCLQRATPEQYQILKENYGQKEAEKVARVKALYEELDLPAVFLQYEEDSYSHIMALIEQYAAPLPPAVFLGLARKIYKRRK

Key:
[1] = tested on: D. discoideum; assay: D. discoideum growth inhibition; assay type: cell-based, Dictyostelium discoideum; conditions: read-out: D. discoideum IC50
[2] = target: Human FPPS (Homo sapiens, UniProt P14324); assay: Human FPPS inhibition; assay type: biochemical; conditions: read-out: Human FPPS Ki
[3] = tested on: Gammadelta T cell; assay: Gammadelta T cell stimulation; assay type: cell-based, human; conditions: read-out: Gammadelta T cell stimulation, EC50

Row | SMILES | IC50 [1] [µM] | Ki [2] [nM] | EC50 [3] [µM]
1 | O=P([O-])(O)C(O)(CC[S+]1CCCC1)P(=O)(O)O (stereo not drawn) | 5.62 | 2.92 | 26
2 | C[S+](CCc1ccccc1)CCC(O)(P(=O)([O-])O)P(=O)(O)O (stereo not drawn) | 5.73 | 4.92 | 309
3 | CCCC[S+](C)CC(O)(P(=O)([O-])O)P(=O)(O)O (stereo not drawn) | 8.3 | 4.34 | 261
4 | O=P([O-])(O)C(O)(C[S+]1CCC(c2ccccc2)C1)P(=O)(O)O (stereo not drawn) | 7.15 | 13.9 | 414
5 | C[S+](C)CCC(O)(P(=O)([O-])O)P(=O)(O)O (stereo not drawn) | 7.51 | 5.24 | 23.7
6 | CCCCCCCC[S+](C)CCC(O)(P(=O)([O-])O)P(=O)(O)O (stereo not drawn) | 4.94 | 12.5 | 96.4
7 | CCC[S+](C)CC(O)(P(=O)([O-])O)P(=O)(O)O (stereo not drawn) | 11.2 | 5.14 | 52
8 | C[S+](CCCOc1ccccc1)CC(O)(P(=O)([O-])O)P(=O)(O)O (stereo not drawn) | 8.87 | 3.44 | 217
9 | O=P([O-])(O)C(O)(C[S+]1CCCC1)P(=O)(O)O (stereo not drawn) | 5.95 | 3.54 | 17.3
10 | O=P([O-])(O)C(O)(CCC[S+]1CCCC1)P(=O)(O)O (stereo not drawn) | 101 | 9.84 | 376
11 | O=P([O-])(O)C(O)(C[S+]1CCCCC1)P(=O)(O)O (stereo not drawn) | 6.58 | 3.42 | 75.5
12 | CCC[S+](C)CCC(O)(P(=O)([O-])O)P(=O)(O)O (stereo not drawn) | 14.6 | 3.36 | 43.5
13 | O=P([O-])(O)C(O)(CC[S+]1CCCCC1)P(=O)(O)O (stereo not drawn) | 13.4 | 3.51 | 200
